{"source": "paper PMC3845358", "about": "(Journal of immunology (Baltimore, Md. : 1950), 2013)", "tested_on": "U937 monocytes", "experiment": "U937 monocyte cell death by trypan blue staining", "format": "cell-based", "details": "LD50 in U937 / IC50 IL-1β in PBMC; 960 min"}
{"smiles": "c1ccc(-c2ccc(CNCCNCc3ccc(-c4ccccn4)cc3)cc2)nc1", "note": "[BC-1215]", "values": [{"measurement": "therapeutic index TI = LC50/IC50", "result": 100}]}
